PubChem BioAssay (NCATS)
This is a selection; strong and weak results do not stand in their true shares. Records with an inconclusive call do not appear. For part of these data: Potency and affinity values are given separately. The source made the active and inactive calls. Unless noted, calls come from the whole dose curve; as a rule, active = well fitted curve in the direction sought with a large enough effect; inconclusive = small, poorly fitted or top-dose-only effect, or another doubt; inactive = no such curve, though single readings can be large; an effect the other way counts as inactive or inconclusive.

Sequences of proteins named here, by UniProt entry; tags and fusion partners are left off. A change or cut given only in a name is not applied to a line headed by its entry.
UniProt Q03181: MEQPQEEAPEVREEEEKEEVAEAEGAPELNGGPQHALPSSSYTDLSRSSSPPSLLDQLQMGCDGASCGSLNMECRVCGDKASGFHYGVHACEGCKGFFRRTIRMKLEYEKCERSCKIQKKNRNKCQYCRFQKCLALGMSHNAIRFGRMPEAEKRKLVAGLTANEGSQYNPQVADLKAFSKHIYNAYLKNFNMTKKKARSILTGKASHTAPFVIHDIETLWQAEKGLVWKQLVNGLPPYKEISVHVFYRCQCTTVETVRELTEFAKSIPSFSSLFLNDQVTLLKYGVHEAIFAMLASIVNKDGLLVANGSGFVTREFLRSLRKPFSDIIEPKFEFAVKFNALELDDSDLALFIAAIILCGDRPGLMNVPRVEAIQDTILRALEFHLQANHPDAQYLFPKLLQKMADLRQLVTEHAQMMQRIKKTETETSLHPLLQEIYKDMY
UniProt P10828: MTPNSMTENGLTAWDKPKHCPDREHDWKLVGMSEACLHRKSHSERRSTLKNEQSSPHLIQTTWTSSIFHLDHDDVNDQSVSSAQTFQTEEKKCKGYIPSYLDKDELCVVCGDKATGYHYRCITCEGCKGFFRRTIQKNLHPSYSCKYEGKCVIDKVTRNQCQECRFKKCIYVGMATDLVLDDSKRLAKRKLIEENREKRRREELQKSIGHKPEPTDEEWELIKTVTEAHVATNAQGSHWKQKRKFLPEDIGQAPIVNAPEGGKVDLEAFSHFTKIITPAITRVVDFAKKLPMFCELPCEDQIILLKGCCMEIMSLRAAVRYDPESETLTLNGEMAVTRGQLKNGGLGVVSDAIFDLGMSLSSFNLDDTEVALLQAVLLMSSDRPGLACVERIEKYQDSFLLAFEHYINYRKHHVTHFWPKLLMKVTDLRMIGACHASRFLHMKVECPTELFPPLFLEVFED
UniProt P19793: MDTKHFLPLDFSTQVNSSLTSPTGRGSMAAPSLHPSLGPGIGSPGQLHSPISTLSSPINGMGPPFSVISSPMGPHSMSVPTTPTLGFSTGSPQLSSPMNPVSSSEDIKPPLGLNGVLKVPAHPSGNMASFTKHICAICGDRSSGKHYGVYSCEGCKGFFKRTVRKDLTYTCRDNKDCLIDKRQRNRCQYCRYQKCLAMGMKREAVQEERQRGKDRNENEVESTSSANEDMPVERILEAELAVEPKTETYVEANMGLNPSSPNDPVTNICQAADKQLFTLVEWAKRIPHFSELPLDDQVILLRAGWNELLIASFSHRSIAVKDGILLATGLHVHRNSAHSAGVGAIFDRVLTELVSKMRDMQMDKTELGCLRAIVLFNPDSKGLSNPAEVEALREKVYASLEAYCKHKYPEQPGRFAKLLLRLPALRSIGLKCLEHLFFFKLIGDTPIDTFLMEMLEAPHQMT
UniProt Q12809: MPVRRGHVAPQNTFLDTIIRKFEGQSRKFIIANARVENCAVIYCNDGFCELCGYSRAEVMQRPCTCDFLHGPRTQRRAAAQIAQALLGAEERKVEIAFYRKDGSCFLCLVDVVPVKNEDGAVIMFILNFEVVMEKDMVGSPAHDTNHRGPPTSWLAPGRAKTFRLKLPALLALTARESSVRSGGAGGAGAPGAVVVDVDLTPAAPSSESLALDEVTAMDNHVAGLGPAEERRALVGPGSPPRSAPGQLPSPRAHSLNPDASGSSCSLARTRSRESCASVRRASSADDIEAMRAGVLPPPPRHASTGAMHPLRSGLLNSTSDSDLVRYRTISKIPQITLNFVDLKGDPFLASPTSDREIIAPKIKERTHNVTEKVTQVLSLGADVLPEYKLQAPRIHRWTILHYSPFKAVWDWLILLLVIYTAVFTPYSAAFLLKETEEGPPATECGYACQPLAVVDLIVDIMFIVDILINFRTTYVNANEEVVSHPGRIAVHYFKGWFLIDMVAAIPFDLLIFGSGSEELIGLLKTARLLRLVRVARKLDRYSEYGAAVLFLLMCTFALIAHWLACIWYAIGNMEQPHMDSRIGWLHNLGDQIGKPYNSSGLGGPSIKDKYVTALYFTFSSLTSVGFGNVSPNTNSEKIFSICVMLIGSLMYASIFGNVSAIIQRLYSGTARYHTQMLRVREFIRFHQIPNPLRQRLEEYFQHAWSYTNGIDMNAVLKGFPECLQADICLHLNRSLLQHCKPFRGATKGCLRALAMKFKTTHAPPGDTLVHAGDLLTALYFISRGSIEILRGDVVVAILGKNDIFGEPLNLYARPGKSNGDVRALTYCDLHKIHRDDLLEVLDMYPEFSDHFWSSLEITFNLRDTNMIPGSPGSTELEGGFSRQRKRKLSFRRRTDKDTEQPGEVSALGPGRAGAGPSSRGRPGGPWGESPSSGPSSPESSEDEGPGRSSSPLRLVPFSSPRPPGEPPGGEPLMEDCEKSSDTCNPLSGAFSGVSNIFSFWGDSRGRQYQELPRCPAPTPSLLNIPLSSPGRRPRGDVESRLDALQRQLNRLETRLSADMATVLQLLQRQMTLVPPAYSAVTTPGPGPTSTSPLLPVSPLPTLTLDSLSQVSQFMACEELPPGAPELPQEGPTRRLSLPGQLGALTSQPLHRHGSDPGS
UniProt P01375, whole entry, looked up: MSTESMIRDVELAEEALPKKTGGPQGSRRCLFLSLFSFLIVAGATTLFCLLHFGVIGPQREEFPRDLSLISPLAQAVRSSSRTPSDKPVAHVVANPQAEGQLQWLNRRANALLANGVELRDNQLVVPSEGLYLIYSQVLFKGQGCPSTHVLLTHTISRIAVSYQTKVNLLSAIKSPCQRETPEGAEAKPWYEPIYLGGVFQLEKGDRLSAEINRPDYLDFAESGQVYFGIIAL
UniProt Q07869: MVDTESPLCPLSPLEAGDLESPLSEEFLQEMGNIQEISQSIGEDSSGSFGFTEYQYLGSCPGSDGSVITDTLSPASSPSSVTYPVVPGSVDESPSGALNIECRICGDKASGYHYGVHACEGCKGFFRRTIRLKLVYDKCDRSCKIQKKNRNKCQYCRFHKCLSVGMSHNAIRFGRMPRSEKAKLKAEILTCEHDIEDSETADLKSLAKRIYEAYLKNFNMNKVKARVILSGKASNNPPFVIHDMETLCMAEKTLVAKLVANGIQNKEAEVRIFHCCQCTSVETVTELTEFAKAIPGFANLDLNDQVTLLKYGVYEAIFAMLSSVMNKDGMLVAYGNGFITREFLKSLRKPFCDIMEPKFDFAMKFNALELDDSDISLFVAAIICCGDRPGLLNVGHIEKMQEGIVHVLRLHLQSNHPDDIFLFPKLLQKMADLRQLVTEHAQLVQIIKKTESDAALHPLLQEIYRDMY
UniProt P51449: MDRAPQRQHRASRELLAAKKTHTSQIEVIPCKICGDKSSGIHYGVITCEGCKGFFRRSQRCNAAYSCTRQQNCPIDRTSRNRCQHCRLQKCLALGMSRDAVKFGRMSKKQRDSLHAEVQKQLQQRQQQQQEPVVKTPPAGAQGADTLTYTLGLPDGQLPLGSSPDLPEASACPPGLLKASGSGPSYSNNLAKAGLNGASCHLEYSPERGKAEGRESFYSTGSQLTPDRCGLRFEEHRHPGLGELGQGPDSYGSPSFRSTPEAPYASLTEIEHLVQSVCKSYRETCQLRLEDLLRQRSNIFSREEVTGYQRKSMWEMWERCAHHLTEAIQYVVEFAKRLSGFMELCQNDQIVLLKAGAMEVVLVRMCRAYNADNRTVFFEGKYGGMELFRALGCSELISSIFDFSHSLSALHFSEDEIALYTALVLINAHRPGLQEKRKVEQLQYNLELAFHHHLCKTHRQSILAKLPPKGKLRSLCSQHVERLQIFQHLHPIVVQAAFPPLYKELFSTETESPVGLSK

Experiments:
[1] = biological target: Bile acid receptor (Homo sapiens) (UniProt Q96RI1); assay: qHTS assay for small molecule agonists of farnesoid X receptor signaling (AID 588527; calls by dose curve;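 note: 0% = vehicle basal and 100% = reference agonist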); conditions: HEK293T FXR-UAS-bla, beta-lactamase ratio, 16 h; hits give high values
[2] = biological target: Peroxisome proliferator-activated receptor delta (Homo sapiens) (UniProt Q03181); assay: qHTS assay for small molecule antagonists of peroxisome proliferator-activated receptor delta signaling (AID 588535; active = well fitted inhibition curve with a large enough effect in the signal ratio, with a control signal flat, not every such curve was filed as active; the % refers to the signal ratio); conditions: HEK293T PPARd-UAS-bla, beta-lactamase FRET ratio, 18 h; at 76.7 µM (top of the series)
[3] = biological target: Peroxisome proliferator-activated receptor gamma (Homo sapiens) (UniProt P37231); assay: qHTS assay for small molecule antagonists of peroxisome proliferator-activated receptor gamma signaling (AID 588537; active = well fitted inhibition curve with a large enough effect in the signal ratio, with a control signal flat, not every such curve was filed as active; the % refers to the signal ratio;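 note: reporter cells co-stimulated with 50 nM rosiglitazone agonist during compound treatment; % of control where 0% means no effect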); conditions: HEK293 PPARg-UAS-bla, beta-lactamase ratio, antagonist mode; at 76.8 µM (top of the series)
Outline: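 Inhibitors of agonist-stimulated UAS-bla reporter activity were sought in HEK293 cells; rosiglitazone (50 nM) defined full signal and DMSO baseline. Curves fitted to Hill model gave IC50 and efficacy.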

[4] = biological target: Vitamin D3 receptor (Homo sapiens) (UniProt P11473); assay: qHTS assay for small molecule antagonists of vitamin D receptor signaling (AID 588541; calls by dose curve;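 note: receptor activated by calcitriol during compound treatment; % is set by controls: 0 for no effect and ±100 for the full control effect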); conditions: HEK293T VDR-UAS-bla, beta-lactamase ratio, antagonist mode; at 76.7 µM (top of the series)
Outline: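 Antagonist-mode beta-lactamase reporter assay: HEK293T VDR-UAS-bla cells were exposed to titrated compound alongside 1-alpha,25-dihydroxyvitamin D3 at 3 nM final for 16 h. Values were normalized to the 50 nM agonist control and DMSO basal, with IC50 and efficacy from Hill equation fits.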

[5] = biological target: Vitamin D3 receptor (Homo sapiens) (UniProt P11473); assay: qHTS assay for small molecule agonists of vitamin D receptor signaling (AID 588543; calls by dose curve;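 note: 0% = DMSO basal and 100% = reference agonist control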); conditions: HEK293T VDR-UAS-bla, beta-lactamase ratio, 16 h; at 76.8 µM (top of the series)
Outline: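 Agonist-mode beta-lactamase reporter: HEK293T VDR-UAS-bla cells in charcoal-stripped 2% FBS, compound series 16 h 37 C, CCF4 2 h RT. EC50 from Hill fit, scaled against DMSO and 50 nM calcitriol control.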

[6] = biological target: Thyroid hormone receptor beta (Homo sapiens) (UniProt P10828); assay: qHTS assay for small molecule agonists of thyroid hormone receptor beta signaling (AID 588545; calls by dose curve;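 note: 0% = DMSO only and 100% = 10 nM T3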); conditions: TR-UAS-bla GripTite HEK 293, beta-lactamase ratio, agonist mode, 18 h, percent of T3 response, DMSO as zero; at 76.7 µM (top of the series)
Outline: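 TR-UAS-bla-GripTite HEK 293 cells in medium with 2% charcoal/dextran FBS, 0.1 mM NEAA and 1 mM sodium pyruvate were treated with titrated compounds for 18 hrs at 37 C. Beta-lactamase reporter was read with CCF4 dye (ex 405, em 460/530 nm); EC50 from Hill fits.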

[7] = biological target: Retinoic acid receptor RXR-alpha (Homo sapiens) (UniProt P19793); assay: qHTS assay for small molecule antagonists of retinoid X receptor alpha signaling (AID 588546; active = well fitted inhibition curve with a large enough effect in the signal ratio, with a control signal flat, not every such curve was filed as active; the % refers to the signal ratio;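 note: cells stimulated with 9-cis-retinoic acid as agonist; % is set by controls: 0 for no effect and ±100 for the full control effect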); conditions: HEK293T RXRa-UAS-bla, beta-lactamase ratio, antagonist mode
Outline: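 Beta-lactamase reporter inhibition, read as CCF4 fluorescence ratio (ex 405, em 460/530 nm) after 2 h at RT. HEK293T UAS-bla cells, 2500/well, were stimulated with 9-cis-RA at 500 or 100 nM final alongside test compound for 18 h at 37 C.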

[8] = biological target: Voltage-gated inwardly rectifying potassium channel KCNH2 (Homo sapiens) (UniProt Q12809); assay: qHTS Assay for Small Molecule Inhibitors of the Human hERG Channel Activity (AID 588834); conditions: U2OS BacMam hERG, FluxOR thallium flux fluorescence; at 46.1 µM (top of the series) unless noted;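 note: U2OS cells transduced with hERG by BacMam; top concentration of the series differs between compounds; % is set by controls: 0 for no effect and ±100 for the full control effect; lower thallium flux fluorescence means stronger hERG block; nearly all actives have a fitted effect of over 50% in size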
[9] = S16 Schwann cell viability assay (CellTiter-Glo assay) (AID 624031); conditions: S16 rat Schwann cells viability, 24 h; at 57.5 µM (top of the series);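 note: native untransfected S16 rat Schwann cells; cellular ATP luminescence as a viability measure; plate controls were DMSO-treated cells for no effect and cell-free wells for full effect; nearly all actives have a fitted effect of over 70% in size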
Outline: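 Parental S16 cells, 24 h compound, 37 °C. ATP-luminescence viability; DMSO = 0% activity, empty wells as reference; curves classified by fit quality and efficacy.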

[10] = S16 Schwann cell PMP22 intronic element firefly luciferase assay (AID 624032); conditions: S16 rat Schwann cells, PMP22 element FLuc, 24 h; at 57.5 µM (top of the series);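 note: plate controls were DMSO for no effect and PTC124 positive control mean for full effect; nearly all actives have a fitted effect of over 30% in size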
[11] = qHTS assay for small molecule activators of the p53 signaling pathway (AID 651743; active = well fitted activation curve with a large enough effect in the signal ratio, not every such curve was filed as active; the % refers to the signal ratio; note: % of control where 0% means no effect); conditions: HCT-116 p53RE-bla, beta-lactamase FRET ratio, 16 h; activation: hits give high values
[12] = biological target: Tumor necrosis factor (Homo sapiens) (UniProt P01375); assay: qHTS assay to identify small molecules that stimulate Tumor Necrosis Factor-alpha (TNF-alpha) secretion (AID 651757; active = well fitted curve in the direction sought with a large enough effect in the signal ratio; the % refers to the signal ratio; note: 0% is about no effect); conditions: Human cells, HTRF 665/615 ratio; at 92.2 µM (top of the series)
Outline: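 Secreted TNF-alpha from compound-treated THP-1 cells (17 hrs, 37 C) was quantified with a homogeneous time-resolved fluorescence antibody assay.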

[13] = qHTS assay for environmental chemicals that activate the Aryl hydrocarbon Receptor (AhR) signaling pathway (AID 651777); conditions: 1A2-DRE human hepatoma cells, luciferase, 24 h; hits give high values; note: % of control where 0% means no effect; nearly all actives have a fitted effect of over 15% in size
Outline: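 Reporter gene assay: hepatoma cells with DRE/CYP1A2-luciferase, 24 hr compound incubation at 37 C, 5% CO2, luminescence after One-Glo (30 min, RT).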

[14] = biological target: Peroxisome proliferator-activated receptor alpha (Homo sapiens) (UniProt Q07869); assay: qHTS assay for small molecule agonists of the peroxisome proliferator-activated receptor alpha (PPARalpha) signaling pathway (AID 651778); conditions: PathHunter PPARalpha complementation, chemiluminescence, 6 h; hits give high values; note: % of control where 0% means no effect
[15] = biological target: Nuclear receptor ROR-gamma (Homo sapiens) (UniProt P51449); assay: qHTS assay for small molecule antagonists of the retinoid-related orphan receptor gamma (ROR-gamma) signaling pathway (AID 651802);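 note: CHO cells with doxycycline-induced ROR-gamma expression; luciferase reporter luminescence driven by ROR response element; % is set by controls: 0 for no effect and ±100 for the full control effect; nearly all actives have a fitted effect of over 60% in size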
[16] = qHTS assay for small molecule agonists of the antioxidant response element (ARE) signaling pathway measured by Nrf2-dependant transcriptional activity (AID 720636; active = well fitted curve in the direction sought with a large enough effect in the repeat runs; an effect the other way counts as inactive or inconclusive;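 note: HepG2 cells with an ARE-driven luciferase reporter; % of control where 0% means no effect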); conditions: ARE-luc HepG2, Nrf2 luciferase reporter, 16 h; at 92.4 µM (top of the series)
[17] = qHTS assay for small molecule antagonists of the retinoid-related orphan receptor gamma (ROR-gamma) signaling pathway - cell viability counter screen (AID 720652; active = well fitted curve in the direction sought with a large enough effect in the repeat runs; an effect the other way counts as inactive or inconclusive;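 note: CHO reporter cells with doxycycline-induced ROR-gamma expression; compound exposure lasted 16 hr before ATP read; % is set by controls: 0 for no effect and ±100 for the full control effect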); conditions: RORgamma reporter cell line viability counter screen; at 92.2 µM (top of the series)
[18] = qHTS assay for small molecule agonists of the antioxidant response element (ARE) signaling pathway measured by Nrf2-dependant transcriptional activity - cell viability counter screen (AID 720653; active = well fitted curve in the direction sought with a large enough effect in the repeat runs; an effect the other way counts as inactive or inconclusive; note: % is set by controls: 0 for no effect and ±100 for the full control effect); conditions: ARE-bla HepG2 viability, CellTiter-Glo ATP luminescence, 16 h; hits give low values
Outline: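 Cytotoxicity counter screen: intracellular ATP quantified by CellTiter-Glo luminescence in the same ARE-bla HepG2 plates, after 16 h compound exposure and a 2 h beta-lactamase substrate step.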

[19] = qHTS Assay for Identifying Gametocytocidal Compounds (AID 743244);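 note: % is set by controls: 0 for no effect and ±100 for the full control effect; actives lower the fluorescent signal which means gametocytes are killed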; conditions: P. falciparum 3D7 stage III-V gametocytes, alamarBlue, 72 h; max response: hits give low values
[20] = qHTS assay for cell viability of HEK293 cells (AID 743288); conditions: ATP luminescence (CellTiter-Glo), 18 h; max response: hits give low values; note: % is set by controls: 0 for no effect and ±100 for the full control effect; nearly all actives have a fitted effect of over 50% in size
Outline: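 Total intracellular ATP, measured with a luciferase-coupled reagent, indicates the number of viable HEK293 cells. Exposure to test chemicals lasts 18 h at 37 C in 1,536-well format at 2,000 cells/well.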

[21] = qHTS assay for cell viability of the p53RE-bla HCT-116 cell line (AID 743292); note: % is set by controls: 0 for no effect and ±100 for the full control effect; nearly all actives have a fitted effect of over 55% in size
Outline: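 ATP-based luminescence, 16 h compound exposure at 37 C, p53RE-bla HCT-116 cells at 4,000/well.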

[22] = qHTS assay to identify small molecule inhibitors of chordoma cells - UCH-1 (AID 1259355); conditions: UCH-1 chordoma viability, CellTiter-Glo, 48 h, combination, with auranofin plus four topoisomerase inhibitors; at 46.1 µM (top of the series); note: % is set by controls: 0 for no effect and ±100 for the full control effect; nearly all actives have a fitted effect of over 55% in size
Outline: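 Seed 800 cells per well; incubate overnight at 37 C, 5% CO2. Add test compounds (15 concentrations), then the auranofin–topoisomerase-agent combination. Incubate 48hr, add CellTiter-Glo, wait 30min, read luminescence.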

[23] = qHTS assay to identify small molecule inhibitors of chordoma cells - UCH-2 (AID 1259356); conditions: UCH-2 chordoma viability, CellTiter-Glo ATP luminescence, 48 h; at 46.1 µM (top of the series); note: % is set by controls: 0 for no effect and ±100 for the full control effect
[24] = P-glycoprotein substrates identified in KB-8-5-11 adenocarcinoma cell line, qHTS therapeutic library screen (AID 1346987); conditions: KB-8-5-11 (P-gp overexpressing) viability, CellTiter-Glo, 72 h; at 44.5 µM (top of the series) unless noted; note: % is set by controls: 0 for no effect and ±100 for the full control effect; nearly all actives have a fitted effect of over 65% in size
[25] = qHTS of pediatric cancer cell lines to identify multiple opportunities for drug repurposing: Primary screen for TC32 cells (AID 1347089); conditions: TC32 Ewing sarcoma viability, CellTiter-Glo luminescence, 48 h; at 45.8 µM (top of the series) unless noted; note: % is set by controls: 0 for no effect and ±100 for the full control effect; nearly all actives have a fitted effect of over 60% in size
[26] = qHTS of pediatric cancer cell lines to identify multiple opportunities for drug repurposing: Primary screen for DAOY cells (AID 1347090);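 note: plate controls were DMSO for no effect and bortezomib for full effect; nearly all actives have a fitted effect of over 55% in size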
[27] = qHTS of pediatric cancer cell lines to identify multiple opportunities for drug repurposing: Primary screen for SJ-GBM2 cells (AID 1347091); conditions: SJ-GBM2 viability, CellTiter-Glo luminescence, 48 h; at 46 µM (top of the series) unless noted;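 note: plate controls were DMSO neutral control for no effect and bortezomib for full effect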
[28] = qHTS of pediatric cancer cell lines to identify multiple opportunities for drug repurposing: Primary screen for A673 cells (AID 1347092); conditions: A673 Ewing sarcoma viability, CellTiter-Glo ATP luminescence, 48 h; at 46 µM (top of the series) unless noted; note: % is set by controls: 0 for no effect and ±100 for the full control effect; nearly all actives have a fitted effect of over 45% in size
[29] = qHTS of pediatric cancer cell lines to identify multiple opportunities for drug repurposing: Primary screen for SK-N-MC cells (AID 1347093); conditions: SK-N-MC viability, CellTiter-Glo luminescence, 48 h; at 46 µM (top of the series) unless noted;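 note: plate controls were DMSO neutral control for no effect and bortezomib for full effect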
[30] = qHTS of pediatric cancer cell lines to identify multiple opportunities for drug repurposing: Primary screen for BT-37 cells (AID 1347094); conditions: BT-37 viability, CellTiter-Glo luminescence, 48 h; at 57.3 µM (top of the series) unless noted;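 note: plate controls were DMSO for no effect and bortezomib for full effect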
[31] = qHTS of pediatric cancer cell lines to identify multiple opportunities for drug repurposing: Primary screen for NB-EBc1 cells (AID 1347095); conditions: NB-EBc1 neuroblastoma viability, CellTiter-Glo luminescence, 48 h; at 46 µM (top of the series) unless noted;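 note: plate controls were DMSO neutral control for no effect and bortezomib for full effect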
[32] = qHTS of pediatric cancer cell lines to identify multiple opportunities for drug repurposing: Primary screen for U-2 OS cells (AID 1347096); conditions: U-2 OS viability, CellTiter-Glo luminescence, 48 h; at 46 µM (top of the series) unless noted;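 note: plate controls were DMSO wells for no effect and bortezomib positive control wells for full effect; nearly all actives have a fitted effect of over 50% in size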
[33] = qHTS of pediatric cancer cell lines to identify multiple opportunities for drug repurposing: Primary screen for Saos-2 cells (AID 1347097); conditions: Saos-2 viability, CellTiter-Glo ATP luminescence, 48 h; at 46 µM (top of the series) unless noted; note: % is set by controls: 0 for no effect and ±100 for the full control effect; nearly all actives have a fitted effect of over 40% in size

NC(=O)Nc1ccc([As](=O)(O)O)cc1
inactive: activation [1] -2.31% | activity change, negative = inhibition [2] -18.4% | activity, negative = inhibition [3] 9.61% | activity change, negative = inhibition [4] 3.51% | activation [5] -0.342% | activation [6] -19.6% | max response [7] 5.1% | activity change, negative = inhibition [8] 0.429% [at 92.2 µM] | activity change, negative = cytotoxicity [9] 8.8% | activity change, negative = inhibition [10] 0.369% | activation [11] 1.05% | activation (TNF-alpha secretion) [12] 0.929% | activation [13] 0.519% | max response [14] -1.01% | Potency [15] | activation [16] -0.823% | activity change, negative = cytotoxicity [17] -2.84% | max response [18] -1.29% | max response [19] -3.38% | max response [20] -3.22% | Potency [21] | activity, negative = inhibition [22] -20.9% | activity change, negative = inhibition [23] 0% | activity change, negative = cytotoxicity [24] -3.56% | activity change, negative = cytotoxic [25] 3.98% | Potency [26] | activity change, negative = cytotoxic [27] 22.7% | activity change, negative = cytotoxic [28] 12% | activity change, negative = cytotoxic [29] -5.53% | activity change, negative = cytotoxic [30] 0.562% | activity change, negative = cytotoxic [31] 10.2% | activity change, negative = cytotoxic [32] 3.14% | activity change, negative = cytotoxic [33] 7.05%
